Assay [1] deals with Hsp90α/p23 interactions (Homo sapiens, UniProt P07900). As to the kind of experiment: RL/FL bioluminescence imaging of 293T xenografts in living mice. The note with it: 4 doses of A17 (80 mg/kg); 43 h; p>0.05. On the procedure:
(§1) Maximum radiance (photons/sec/cm^2/sr) from RL signals was normalized to that of FL signals at each site and at each time point to account for the effect of CP9 on cell proliferation. The RL/FL ratios were normalized to that of time 0 h to monitor the individual change in Hsp90(α/β)/p23 interactions in each mouse over time. Results were expressed as mean±S.E.M for the control and treatment groups for Hsp90α/p23 (left panel) and Hsp90β/p23 interactions (right panel).
(§2) To monitor the inhibition of Hsp90(α/β)/p23 interactions by CP9 in living mice, a second reporter (FL-eGFP) was introduced into the 293T cells stably expressing Hsp90(α/β)/p23 split RL reporters (now referred as 293T(α/β)—FG cells). […] Baseline RL and FL signals in each implanted tumor were determined upon i.v. substrate injection. […]
(§3) Mice were gas anesthetized using isofluorane (2% in 100% oxygen, 1 L/min) during all injection and imaging procedures and kept at 37° C. […] Baseline RL activities in the implanted tumors in living mice were determined by i.v. injection of 30 μg cltz (in 150 μl of 5% ethanol: 95% PBS) and image acquisition of 3 mins. After a 30 mins wait for RL signals to decay, FL activities were determined by i.v. injection of 163 μg of D-Luc in 100 μl PBS with image acquisition of 10 sequences for 15 sec each to obtain the peak max radiance. […]

The chains behind the UniProt entries cited, without tags or fusion partners.
UniProt P08238, whole entry: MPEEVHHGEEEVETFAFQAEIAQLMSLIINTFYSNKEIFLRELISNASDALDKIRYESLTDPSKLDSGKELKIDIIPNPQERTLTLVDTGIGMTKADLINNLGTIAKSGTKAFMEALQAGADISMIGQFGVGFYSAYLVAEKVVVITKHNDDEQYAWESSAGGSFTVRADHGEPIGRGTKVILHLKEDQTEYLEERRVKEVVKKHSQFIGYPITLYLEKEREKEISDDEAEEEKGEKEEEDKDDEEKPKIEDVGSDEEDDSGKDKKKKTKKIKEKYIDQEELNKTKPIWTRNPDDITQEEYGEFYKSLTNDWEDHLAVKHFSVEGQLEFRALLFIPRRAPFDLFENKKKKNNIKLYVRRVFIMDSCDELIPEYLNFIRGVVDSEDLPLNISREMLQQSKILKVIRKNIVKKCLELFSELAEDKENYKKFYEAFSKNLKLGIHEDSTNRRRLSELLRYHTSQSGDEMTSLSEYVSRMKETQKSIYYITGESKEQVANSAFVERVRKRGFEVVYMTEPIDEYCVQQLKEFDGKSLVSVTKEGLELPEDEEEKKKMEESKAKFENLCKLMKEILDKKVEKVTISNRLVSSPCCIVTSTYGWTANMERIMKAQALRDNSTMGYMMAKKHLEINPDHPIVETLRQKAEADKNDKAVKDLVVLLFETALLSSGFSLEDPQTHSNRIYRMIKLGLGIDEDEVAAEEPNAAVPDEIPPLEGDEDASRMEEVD

For assay [2], the target named is Hsp90β/p23 interactions (Homo sapiens, UniProt P08238). Described as above. The note with it: 4 doses of A17 (80 mg/kg); p>0.05. The procedure:
as §1, §2, §3

The subject of assay [3] is Hsp90(α/β)/p23 interactions. As to the kind of experiment: RL/FL bioluminescence imaging of 293T xenografts, both isoforms stated jointly. The conditions noted are these: same dosing regimen as CP9; p>0.05.
Description: To monitor the inhibition of Hsp90(α/β)/p23 interactions by CP9 in living mice, a second reporter (FL-eGFP) was introduced into the 293T cells stably expressing Hsp90(α/β)/p23 split RL reporters (now referred as 293T(α/β)—FG cells). Although ^18F-FLT has also been used to monitor tumor cell proliferation in small animals by PET (Tseng et al., (2005) J. Nucl. Med. 46: 1851-1857), FL imaging was used because of the higher sensitivity and ease of performing sequentially with RL imaging for Hsp90(α/β)/p23 interactions. […] Baseline RL and FL signals in each implanted tumor were determined upon i.v. substrate injection. […]
The efficacy of A17 in disruption of Hsp90(α/β)/p23 interactions and inhibition of cellular proliferation in living mice was monitored by BLI using the same dosing regimen as CP9. […]
as §3

The subject of assay [4] is Hsp90(α/β)/p23 interactions. As to the kind of experiment: CP9 analogue evaluation in 293T(α/β)-FG cells, both isoforms stated jointly. The procedure: To improve the efficacy of CP9 in disruption of Hsp90(α/β)/p23 interactions in living mice, a structure-activity relationship (SAR) study was performed using 62 structural analogues (10 μM) with different modifications on CP9, as shown in FIGS. 2A-2G, using the 293T(α/β)-FG stable cells. Their effects on Hsp90(α/β)/p23 interactions and cell proliferation were monitored by sequential RL (FIG. 11A) and FL imaging at 24 h. CP9, PU-H71 and 17-AAG were used as positive controls. The net effect on Hsp90(α/β)/p23 interactions was determined by normalizing RL to that of FL signals and to that of carrier control-treated cells (FIG. 11B). […]
CP9 (0.3-10 μM), 17-AAG (10 μM) and PU-H71 (5 μM) were used as positive controls in triplicate wells. The efficacy of the analogues in disruption of Hsp90(α/β)/p23 and cell proliferation were monitored by RL imaging (2 h post upon addition of ENDUREN® at 30 μM final concentration) followed by FL imaging (10 mins post addition of D-Luc at 0.225 mg/ml final concentration) using a cooled CCD camera (1 min and 10 sec for RL and FL imaging, respectively). […] The effect of the CP9 analogues on degradation of Hsp90 client proteins in 293T cells were also monitored by western blotting as described above.

As to `Cc1cc(NC(=O)CSc2nc(-c3ccco3)cc(C(F)(F)F)n2)no1`, the “Hsp90α/p23 interactions in mice bearing 293T xenografts” value in assay [1] is reported as “decreases in Hsp90 α/p23 interactions at 43 h but of limited statistical significance”. Moreover, the “Hsp90β/p23 interactions in mice bearing 293T xenografts” value in assay [2] is given as “did not lead to significant decrease”. Further, the “Hsp90(α/β)/p23 interactions in tumor xenografts vs carrier control mice” value in assay [3] is recorded as “failed to significantly decrease”. The “SAR: efficacy in disruption of Hsp90(α/β)/p23 interactions” value in assay [4] (comparison of R1, R2, R3 substitutions) is “higher potency than for the parental compound”. The “inhibition of Hsp90(α/β)/p23 interactions compared to CP9” value in assay [4] (time- and dose-response curves) is recorded as “more effective than CP9”.

(Values after patent US20130310347A1, “MULTI-MODALITY MOLECULAR IMAGING HIGH-THROUGHPUT ASSAY FOR IDENTIFYING HEAT SHOCK PROTEIN 90 (HSP90) INHIBITORS” (The Board of Trustees of the Leland Stanford Junior …, priority 2012, published 2013).)
